Measured values: patent US20260384421A1, “NOVEL COMPOUNDS THAT CAN BE USED AS THERAPEUTIC AGENTS” (published 2026)

Experiments:
LOUCY cells = experiment: alamarBlue proliferation assay with LOUCY cells; conditions: read-out: Activity on LOUCY (IC50), day 5
Protocol: These hyperproliferative processes can be benign or malignant and include hyperplasia, neoplasia, cancer and pre-cancerous lesions, and metastases. […] To this end, according cells were seeded into 96-well plates (CORNING #3598) suitable for fluorescence assays at following initial cell numbers: 1000 cells per well for HPEK; 3000 cells per well for MDA-MB-231, 8000 cells per well for ZR-75-30, 1500 cells per well for HCC-1395, 1500 cells per well for HCC-1937, 3000 cells per well for T-47D, 1500 cells per well for JURKAT, 5000 cells per well for RPMI-8402, 9000 cells per well for LOUCY, 1500 cells per well for TANQUE, 9000 cells per well for REC-1, 1000 cells per well for HL-60, 1000 cells per well for NB-4, 9000 cells per well for TT, 2000 cells per well for HeLa, 2000 cells per well for 23132/87, 9000 cells per well for SW-948, 700 cells per well for HCT-116, 1500 cells per well for BHY, 700 cells per well for A-431, 1500 cells per well for HEP-G2, 500 cells per well for NCI-H460, 1000 cells per well for A-549, 1500 cells per well for PANC-1, 2500 cells per well for U-87 MG, 700 cells per well for A-375, 1500 cells per well for RVH-421, 2000 cells per well for SW-1353, 500 cells per well for C2C12, 500 cells per well for LL/2, and 3000 cells per well for CF21.T. In a volume of 90 μL per well of culture medium the cells were treated with compounds at indicated final concentrations by adding 10 μL per well of 10× compound working solutions from 1:100 pre-diluted 1000× compound DMSO stock-solutions in H2O (Water For Injection, WFI, Fisher Scientific, Gibco™ #A12873) or with the empty carrier DMSO (AppliChem, #A3672) at 0.1% v/v as control yielding a final volume of 100 μL per well. […] The readout was taken with a multi-well plate-reader (Tecan Spark®) in the fluorescence mode with applying a filter for excitation at 560 nm (band width 10 nm) and for emission at 590 nm (band width 10 nm). […]

MDA-MB-231 cells [1] = experiment: alamarBlue proliferation assay with MDA-MB-231 cells (glucose-free Leibovitz's L-15 medium)
A-431 cells = experiment: alamarBlue proliferation assay with A-431 cells; conditions: read-out: Activity on A-431: IC50, DMEM medium, 10% FBS
NB-4 cells = experiment: alamarBlue proliferation assay with NB-4 cells; conditions: read-out: Activity on NB-4: IC50, RPMI 1640 medium, 10% FBS
HEP-G2 cells = experiment: alamarBlue proliferation assay with HEP-G2 cells; conditions: read-out: Activity on HEP-G2: IC50, RPMI 1640 medium, 10% FBS
HCT-116 cells [2] = experiment: alamarBlue proliferation assay with HCT-116 cells; conditions: read-out: Activity on HCT-116: IC50, McCoy's 5A medium, 10% FBS
MDA-MB-231 cells [3] = experiment: combination treatment activity assay with syrosingopine on MDA-MB-231 cells; conditions: 2 days
Protocol: The synergistic or additive activity of a compound falling under general formula (I) was investigated in a combination treatment with the MCT1/MCT4 inhibitor syrosingopine (TargetMol, #TN2252) in a viability assay on MDA-MB-231 cells cultured in D-Glucose-containing RPMI 1640 medium (Fisher Scientific, Gibco™ #72400) supplemented with 10% fetal bovine serum (Fisher Scientific, Gibco™ #A31608) and on HCT-116 cells cultured as described above. The viability assay was performed according to the protocol as described above using alamarBlue® (Bio-Rad Serotec GmbH, BUF012B). To this end, according cells were seeded into 96-well plates (CORNING, #3598) suitable for fluorescence assays at a cell number of 7'000 cells per well for MDA-MB-231 and 7'000 cells per well for HCT-116, and incubated over night at 37 °C and 5% CO2. Then, in a volume of 90 μL medium per well the cells were treated with compounds at a final concentration of 10 nM for the compound of formula (I) and 10 μM for syrosingopine by adding 10 μL per well of a 10× compound working solution or the empty carrier DMSO as control. The 10× working solutions were prepared by diluting both compounds from their 2000×DMSO stock-solutions together 1:200 each in H2O (Water For Injection, WFI, Fisher Scientific, Gibco™ #A12873) for the combination treatment, or by diluting their 2000×DMSO stock-solutions individually with the empty carrier DMSO 1:200 in H2O for the corresponding single treatments. Addition of the compound working solutions into the wells yielded a final assay volume of 100 μL per well containing 0.1% v/v DMSO. After 2 days incubation at 37 °C and 5% CO2, the cells were subjected to the alamarBlue® Proliferation Assay as described above. Relative viability values were calculated from the fluorescence intensities as described above.
A decrease in relative viability upon single treatment was not observed for the tested compounds of formula (I) and less than 25% for syrosingopine. […]

HPEKp cells = experiment: proliferation assay with human epidermal keratinocyte progenitors (HPEKp), selectivity versus MDA-MB-231; conditions: read-out: Activity (HPEK); HPEK cells (HPEKp); antiproliferative activity, class by IC50
A-549 cells = experiment: alamarBlue proliferation assay with A-549 cells; conditions: read-out: Activity on A-549: IC50, DMEM medium, 10% FBS
TANQUE cells = experiment: alamarBlue proliferation assay with TANQUE cells; conditions: read-out: Activity on TANOUE: IC50, RPMI 1640 medium, 10% FBS
LL/2 cells = experiment: alamarBlue proliferation assay with LL/2 cells; conditions: read-out: Activity on LL/2: IC50; LL/2 murine Lewis lung carcinoma cells, DMEM medium, 10% FBS
CF21.T cells = experiment: alamarBlue proliferation assay with CF21.T cells; conditions: read-out: Activity on CF21.T: IC50; CF21.T canine cells, DMEM medium, 10% FBS
A-375 cells = experiment: alamarBlue proliferation assay with A-375 cells; conditions: read-out: Activity on A-375: IC50, DMEM medium, 10% FBS
BHY cells = experiment: alamarBlue proliferation assay with BHY cells; conditions: read-out: Activity on BHY: IC50, DMEM medium, 10% FBS
HCT-116 cells [4] = experiment: combination treatment activity assay with syrosingopine on HCT-116 cells; conditions: syrosingopine 10 μM or compound of formula (I) 10 nM alone, 2 days
Protocol: The synergistic or additive activity of a compound falling under general formula (I) was investigated in a combination treatment with the MCT1/MCT4 inhibitor syrosingopine (TargetMol, #TN2252) in a viability assay on MDA-MB-231 cells cultured in D-Glucose-containing RPMI 1640 medium (Fisher Scientific, Gibco™ #72400) supplemented with 10% fetal bovine serum (Fisher Scientific, Gibco™ #A31608) and on HCT-116 cells cultured as described above. The viability assay was performed according to the protocol as described above using alamarBlue® (Bio-Rad Serotec GmbH, BUF012B). To this end, according cells were seeded into 96-well plates (CORNING, #3598) suitable for fluorescence assays at a cell number of 7'000 cells per well for MDA-MB-231 and 7'000 cells per well for HCT-116, and incubated over night at 37 °C and 5% CO2. Then, in a volume of 90 μL medium per well the cells were treated with compounds at a final concentration of 10 nM for the compound of formula (I) and 10 μM for syrosingopine by adding 10 μL per well of a 10× compound working solution or the empty carrier DMSO as control. […] Relative viability values were calculated from the fluorescence intensities as described above. […]

[5] = read-out: Activity on MDA-MB-231 (IC50), glucose-free Leibovitz's L-15, 10% FBS, day 5, alamarBlue

IC50 (MDA-MB-231 cells [1]; [5]) [nM] | IC50 (A-431 cells) [nM] | IC50 (HEP-G2 cells) [nM] | IC50 (HCT-116 cells [2]) [nM] | IC50 (MDA-MB-231 cells [1]; read-out: Activity (MDA), MDA-MB-231 cells, antiproliferative activity, class by IC50) [nM] | IC50 (HPEKp cells) [nM] | IC50 (A-549 cells) [nM] | IC50 (A-375 cells) [nM] | Structure (SMILES) | IC50 (LOUCY cells) [nM] | IC50 (NB-4 cells) [nM] | Activity as treatment enhancer (additional viability decrease as compared to single treatment with syrosingopine) (MDA-MB-231 cells [3]; compound 10 nM + syrosingopine 10 μM, D-glucose-containing RPMI 1640) | IC50 (TANQUE cells) [nM] | IC50 (LL/2 cells) [nM] | IC50 (CF21.T cells) [nM] | IC50 (BHY cells) [nM] | decrease in relative viability upon single treatment (MDA-MB-231 cells [3]; syrosingopine 10 μM alone, MDA-MB-231) | decrease in relative viability upon single treatment (HCT-116 cells [4])
≤ 20000 | ≤ 20000 | – | – | – | – | – | – | C#CCN1CCN(C(=O)c2ccc(Oc3ccc(C4CCCCC4)cc3C=O)cc2)CC1 | ≤ 20000 | – | – | – | – | – | – | – | –
≤ 200 | ≤ 200 | ≤ 200 | ≤ 200 | < 1000 | < 10000 | ≤ 200 | ≤ 200 | COC1CCC(c2ccc(Oc3ccc(C(=O)N4CCN(Cc5ccc(OC(F)(F)F)cc5)CC4)nc3)c(CO)c2)CC1 (stereo not shown) | – | ≤ 200 | viability decrease >45% | ≤ 200 | ≤ 200 | ≤ 200 | ≤ 200 | – | –
– | – | – | – | – | – | – | – | CCOC(=O)Oc1c(OC)cc(C(=O)O[C@@H]2C[C@@H]3CN4CCc5c([nH]c6cc(OC)ccc56)[C@H]4C[C@@H]3[C@H](C(=O)OC)[C@H]2OC)cc1OC | – | – | – | – | – | – | – | less than 25% | less than 5%

Where two headings read alike, the source gives them in different places.
